Measurements published in patent US5094857A, “Treatment of acne or androgenetic alopecia by topical administration of ethisterone” (priority 1987, dated 1992).

Legend:
[1] = target: T1, androgen receptor preparations of sebaceous glands (Mesocricetus auratus, UniProt A0A1U7QL32); assay: Competitive binding analysis (displacement of tritium-marked R 1881); set-up: species or system Syrian hamster; details: displacement of 8 nM tritium-marked R 1881, FIG. 1
T1 construct: [3H]R1881 displacement with excess triamcinolone acetate
T1 sequence (A0A1U7QL32 1-900): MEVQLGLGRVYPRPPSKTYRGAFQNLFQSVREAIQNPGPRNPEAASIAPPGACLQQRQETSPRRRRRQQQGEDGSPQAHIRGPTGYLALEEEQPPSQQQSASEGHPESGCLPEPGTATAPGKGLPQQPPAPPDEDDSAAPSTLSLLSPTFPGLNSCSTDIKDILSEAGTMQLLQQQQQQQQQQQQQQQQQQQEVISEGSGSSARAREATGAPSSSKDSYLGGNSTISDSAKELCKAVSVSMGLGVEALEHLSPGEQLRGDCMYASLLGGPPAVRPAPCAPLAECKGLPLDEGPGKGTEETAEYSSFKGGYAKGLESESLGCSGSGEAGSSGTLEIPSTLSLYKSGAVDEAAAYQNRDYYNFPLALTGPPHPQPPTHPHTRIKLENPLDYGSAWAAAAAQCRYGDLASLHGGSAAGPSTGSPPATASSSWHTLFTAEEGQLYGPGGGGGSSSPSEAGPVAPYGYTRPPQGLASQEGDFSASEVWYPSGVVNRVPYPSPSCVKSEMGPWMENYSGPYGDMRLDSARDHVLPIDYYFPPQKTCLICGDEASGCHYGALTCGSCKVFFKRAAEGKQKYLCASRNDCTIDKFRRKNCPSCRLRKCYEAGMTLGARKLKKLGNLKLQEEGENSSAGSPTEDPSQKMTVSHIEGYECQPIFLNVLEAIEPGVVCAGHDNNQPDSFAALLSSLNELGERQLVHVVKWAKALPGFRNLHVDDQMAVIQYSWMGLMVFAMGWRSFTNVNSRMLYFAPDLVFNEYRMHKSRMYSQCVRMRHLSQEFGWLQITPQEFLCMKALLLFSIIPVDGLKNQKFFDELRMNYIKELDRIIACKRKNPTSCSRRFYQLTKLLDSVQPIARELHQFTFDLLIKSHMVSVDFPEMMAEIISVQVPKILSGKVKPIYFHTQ

androgen receptor = androgen receptor (Mesocricetus auratus, UniProt A0A1U7QL32); assay: biochemical

Structure (SMILES): C[C@]1(O)CC[C@H]2[C@@H]3CCC4=CC(=O)CCC4=C3C=C[C@@]21C [R 1881, methyltrienolone]
- in vitro affinity at 50% blocking (rank order) [1]: R 1881, 17-alpha-PM, ethisterone, CPA, SL and dexamethasone
- Kd (androgen receptor): 2.92 nM
